Reference: patent publication US20240417406A1, “NITROGEN-CONTAINING TRICYCLIC COMPOUND AND PHARMACEUTICAL USE THEREOF” (JAPAN TOBACCO INC., priority 2021, published 2024)

Target: human PDHK2 (hPDHK2) (Homo sapiens (Human), UniProt Q15119)
Assay: Inhibitory action of PDHK2 activity (PDH/hPDHK2 complex, residual PDH activity by NADH absorbance at 340 nm)
Settings: read-out: hPDHK2 IC50; FLAG-tagged recombinant hPDHK2 with porcine heart PDH complex; PDHK reaction 45 min at room temperature
Method: In the case of human PDHK2 (hPDHK2, NCBI Reference Database Accession number NM_002611.4), modified hPDHK2 cDNA wherein FLAG-Tag sequence was added to the N terminal of hPDHK2 cDNA clone (pReceiver-M01/PDK2-GeneCopoeia) as the base was prepared by polymerase chain reaction (PCR) and ligated to the NdeI/EcoRI site of pET-17b vector (Merck KGaA, Catalog Number 69663-3). The recombinant construct was transformed into Escherichia coli DH5a. The recombinant clones were identified, and plasmid DNA was isolated and subjected to the DNA sequence analysis. One clone which had the expected nucleic acid sequence was selected for expression work.
For expression of hPDHK2 activity, Escherichia coli strain BL21(DE3) cells (Merck KGaA, Catalog Number 69450-4) were transformed with the pET17b vector containing modified hPDHK2 cDNA. The Escherichia coli were grown to an optical density 0.6 ([…]) at 30° C. Protein expression was induced by the addition of 500 μmol/L isopropyl-β-thiogalactopyranoside. The Escherichia coli were cultured at 20° C. for 17 to for 18 hr and harvested by centrifugation. The harvested Escherichia coli was resuspended in a suspension buffer (20 mmol/L HEPES-NaOH, 500 mmol/L sodium chloride, 1% ethylene glycol, 0.1% Pluronic (registered trademark) F-68 (pH 8.0), cOmplete, EDTA-free (Roche) (pH 8.0)), and disrupted by a microfluidizer M-110H (MIZUHO INDUSTRIAL CO., LTD.). […]

C[C@H]1Cn2nc(C34CCC(C(C)(C)O)(CC3)OC4)cc2-c2cnc([C@@](C)(O)C(F)(F)F)n21
IC50: 0.0325 µM
